This experiment has as its system MLS ovarian cancer cells. Nature of the experiment: MLS ovarian tumor xenograft in nude mice. The class given is in vivo. The note with it: MLS tumors, antibodies injected into the peritoneum, six weeks, data not shown. Here is the method:
FIGS. 7A-7C illustrate that AR30, an anti-AREG monoclonal antibody, inhibits tumorigenic growth of human ovarian cancer cells in mice. FIG. 7A, female nude mice (6 weeks old) were inoculated subcutaneously with MLS ovarian cancer cells (2×10^6 per animal). Once tumors became palpable, mice were randomized into two groups. Eleven mice were injected intraperitoneally with an anti-AREG mAb (AR30; 200 μg/mouse; twice a week, on days: 8, 11, 14, 17, and 21). The control group also included 11 mice. Shown are means±S.D. values; FIG. 7B, female nude mice (6 weeks old) were inoculated subcutaneously with MLS ovarian cancer cells (2×10^6 per animal). Once tumors became palpable, mice were randomized into four groups. One group (8 mice) was injected intraperitoneally with the AR30 mAb (100 μg/mouse twice a week, on days: 8, 14, 17, 21, 24 and 28). Another group (8 mice) was treated with cisplatin (5 mg/kg; on days 8 and 21). The fourth group was treated with a combination of mAb AR30 and cisplatin. The control group included 12 mice; and FIG. 7C, the indicated MLS tumors were excised, and their average weights determined. Representative tumors were photographed.
All animal procedures were approved by the Weizmann Institute of Science's review board. […] Tumor volumes were monitored twice a week, and body weights were measured once a week.

Consider cetuximab [reference compound], for which the tumor growth entry was “partly inhibited tumor growth”.
